Measured values reported in patent EP2257297B1, “COMPOUNDS FOR USE IN THE TREATMENT OF ACNE, SEBORRHOEA AND SEBHORROEIC DERMATITIS, OR FOR REDUCING SEBUM SECRETION” (priority 2008, dated 2009).

Chains of the proteins cited; added tags and fusions are not shown. Lines headed by an entry give the natural chain unless they say otherwise; changes in a name come on top.
UniProt P33032: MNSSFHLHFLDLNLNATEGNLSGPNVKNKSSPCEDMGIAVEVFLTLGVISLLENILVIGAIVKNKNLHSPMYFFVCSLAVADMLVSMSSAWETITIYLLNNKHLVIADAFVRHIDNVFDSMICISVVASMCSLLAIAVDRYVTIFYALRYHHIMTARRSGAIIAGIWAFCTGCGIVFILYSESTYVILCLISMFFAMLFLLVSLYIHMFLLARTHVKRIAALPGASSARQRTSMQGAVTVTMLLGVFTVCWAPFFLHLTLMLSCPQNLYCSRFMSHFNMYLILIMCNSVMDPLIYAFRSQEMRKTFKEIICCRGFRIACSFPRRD

Tests used:
[1] = molecular target: human MC3R; experiment: Human MC3R radioligand binding assay ([125I] NDP-MSH); details: Table 6, hMCR binding selectivity
Protocol: (§1) Radioligand binding assays were carried out using commercial or in-house prepared hMC1 R, hMC3R and hMC4R membranes and [^125I]
(§2) In-house plasma membranes were prepared from transfected mammalian cells (prepared as in Example 109, using plasmid DNA containing the human MC1 R, MC3R or MC4R gene or other gene of interest in a plasmid vector with a mammalian origin of replication): • Adherent cells were washed with warm Hanks buffered saline solution (HBSS). 1 mL of cold HBSS was added to each flask and the cells were scraped off with a rubber policeman. The scraped cells were added to a 50 mL tube on ice. The plates were then rinsed twice with 5 mL cold HBSS and this was also added to the tube. The cells were centrifuged at 1000 x g for 5 mins in a bench top centrifuge and the supernatant was decanted. The remaining cell pellet was resuspended in 0.25 M sucrose. The cell suspension was centrifuged again as previously and the pellet resuspended in 5 mL of 0.25 M sucrose containing protease inhibitors. The cells were homogenised by a 10 second pulse with an Ika disperser followed by 30 seconds on ice. The homogenisation and ice incubation was repeated three times. The mixture was then centrifuged at 1260 x g for 5 mins. […]

[2] = molecular target: human MC4R; experiment: Human MC4R radioligand binding assay ([125I] NDP-MSH); details: Table 6, hMCR binding selectivity
Protocol: as §1, §2

[3] = molecular target: human MC1R; experiment: Human MC1R radioligand binding assay ([125I] NDP-MSH); details: Table 6, hMCR binding selectivity
Protocol: as §1, §2

[4] = molecular target: T1, human MC5R (Homo sapiens, UniProt P33032); experiment: Human MC5R radioligand binding assay ([125I] NDP-MSH displacement, hMC5R membranes); details: hMC5R assay as in Example 102; compounds tested as trifluoroacetate or hydrochloride salts, or as free base
T1 construct: purchased Perkin Elmer RBXMC5M400UA
Protocol: After incubation for 10 mins the phosphate buffer containing the iodine was added to NDP-MSH (10 ul at 1 mg/mL) in a separate eppendorf tube. This was incubated for a further 10 mins.
Resuspended membranes were kept on ice until they were added to the wells of the plate.
Assays were performed in 96 well polypropylene plates. […] This was incubated for 1 hr at 37 °C. Non-specific binding was determined with […] NDP-MSH. Plates were filtered using a Tomtec cell harvester with GF/A filters (Wallac) (presoaked in 0.6% polyethylenimine) and washed three times with 1.0 mL ice-cold wash buffer (the above incubation buffer without 1,10-phenanthroline and Complete™ protease inhibitor tablet). The filters were dried in a 37 °C oven, placed in a sample bag and 5 mL Betaplatescint (Wallac) was added. Prepared filters were counted in cassettes in a Microbeta Trilux (Wallac) for 1 min. […] Data analysis was performed using GraphPad Prism 4, employing competition binding with a single site model and a fixed Hill coefficient. The following equation was used: Y = Bottom + (Top-Bottom)/1/10^(X-logEC50), where X = log(concentration) and Y = binding to fit the data.

Row | IC50 [1] [µM] | IC50 [2] [µM] | IC50 [3] [µM] | IC50 [4] [µM] | SMILES
1 | 2.24 | 3.49 | 9.22 | – | O=C(NC[C@@H]1CCN(CC(c2ccccc2)c2ccccc2)C(=O)[C@H](CCCN2CCCCC2)N1)c1ccc2ccccc2c1 [Compound 64, N-(((3S,5S)-1-(2,2-diphenylethyl)-2-oxo-3-(3-(piperidin-1-yl)propyl)-1,4-diazepan-5-yl)methyl)-2-naphthamide]
2 | – | – | – | < 10 | N=C(N)NCCC[C@H]1N[C@H](CNC(=O)c2ccc3ccccc3c2)CCN(CC(c2ccccc2)c2ccccc2)C1=O [Compound 102, N-(((3R,5S)-1-(2,2-diphenylethyl)-3-(3-guanidinopropyl)-2-oxo-1,4-diazepan-5-yl)methyl)-2-naphthamide]
3 | – | – | – | < 10 | N=C(N)NCCC[C@@H]1N[C@@H](CNC(=O)c2ccc3ccccc3c2)CCN(CC(c2ccccc2)c2ccccc2)C1=O [Compound 104, N-(((3S,5R)-1-(2,2-diphenylethyl)-3-(3-guanidinopropyl)-2-oxo-1,4-diazepan-5-yl)methyl)-2-naphthamide]
4 | 1.75 | – | – | – | N=C(N)NCCC[C@@H]1N[C@H](CNC(=O)c2ccc3ccccc3c2)CCN(CC(c2ccccc2)c2ccccc2)C1=O [Compound 105, N-(((3S,5S)-1-(2,2-diphenylethyl)-3-(3-guanidinopropyl)-2-oxo-1,4-diazepan-5-yl)methyl)-2-naphthamide]
